“Also recorded” adds a separate entry of the source.
Experiments:
ORX1 and ORX2 receptors = settings: cited from earlier work
panic-prone rats = assay: Sodium lactate challenge in panic-prone (l-allylglycine) rats; assay type: in vivo, rat; settings: 30 mg/kg i.p., FIG. 1e
Text: Panic disorder is associated with disruption of central inhibitory gamma-aminobutyric acid (GABAergic) tone, and may contribute to panic attacks which are consistently provoked by ordinarily mild physical stressors such as mild osmotic disturbances (e.g., intravenous sodium lactate challenges).
Orexin/hypocretin producing neurons are almost exclusive to dorsomedial hypothalamus and adjacent lateral hypothalamus, and play a critical role in maintaining wakefulness, vigilance and central sympathetic mobilization, which are key components of panic and anxiety. Experiments were conducted to investigate whether the administration of either a systemic orexin 1 antagonist or silencing the hypothalamic orexin gene product with RNA interference could block lactate-induced panic responses.

[1] = tested on: bilaterally ovariectomized adult female rats

Compound: Cc1nc2ccc(NC(=O)Nc3ccnc4cccnc34)cc2o1 [SB334867, 1-(2-methylbenzoxazol-6-yl)-3-[1,5]naphthyridin-4-yl urea]
- selectivity for ORX1 over ORX2 receptors (ORX1 and ORX2 receptors): around 100 ×
- lactate induced increases in general locomotor activity (flight behavior) (panic-prone rats): block; also recorded: attenuated
- lactate induced increases in general locomotor activity (flight behavior) (panic-prone rats; listed as orexin 1 receptor antagonist): blocks
- OVEX-induced adverse menopausal activity (circadian disruption of tail temperature, tail temp responses to challenges, anxiety-like behavior) [1]: attenuated
